The values below are quoted from earlier work in patent US7037910B2, “Azabicyclic heterocycles as cannabinoid receptor modulators” (Bristol-Myers Squibb, priority 2003, dated 2006).

For this series the following is noted: chronic administration for two weeks.

In the case of `Cc1c(C(=O)NN2CCCCC2)nn(-c2ccc(Cl)cc2Cl)c1-c1ccc(I)cc1` [AM-251], the adipose tissue mass entry was “decreased adipose tissue mass”.
